## Antibody variant affinities, Ab-95 light chain, assay 2

From the AlphaSeq antibody data of Engelhart et al. 2022 (doi:10.1038/s41597-022-01779-4), copy in the FLAb collection.

Binding partner: SARS-CoV-2 spike HR2 peptide, sequence PDVDLGDISGINAS.

Parent scFv Ab-95: VH joined to VL by the linker GGGGSGGGGSGGGGS. Changes lie in the light chain CDRs alone.
VH: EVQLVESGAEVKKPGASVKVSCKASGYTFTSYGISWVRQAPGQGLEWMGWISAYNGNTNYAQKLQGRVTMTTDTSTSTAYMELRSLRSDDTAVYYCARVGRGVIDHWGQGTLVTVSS
VL: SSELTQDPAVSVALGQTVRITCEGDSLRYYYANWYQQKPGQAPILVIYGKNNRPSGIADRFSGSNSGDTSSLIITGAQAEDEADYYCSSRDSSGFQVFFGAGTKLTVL

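Phage display of a naive human antibody library on the peptide gave the parent. Library AAYL52 holds single substitutions and randomly drawn double and triple substitutions in the CDRs. Affinity was read by AlphaSeq, a pooled yeast mating assay with surface-displayed partners. After mating in shaken culture at 30 °C for 16 h, diploids were selected and their barcode pairs sequenced. A regression on co-assayed BCL2-family reference pairs converts the normalised counts of each replicate to an apparent Kd. Mating was done three times.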

Substitutions are numbered in sequence along the VL above, starting at 1 (not Kabat). Affinities are written as log10 Kd with Kd in nM; a lower number is a better binder. An entry "ND" has no value in the source: the pair was not observed among the diploids in that replicate. This suggests poor binding but is not conclusive. Empty control strains, which show no peptide, gave a signal in 28% of pairings with library AAYL52; the median was 3.91 and 95% of these signals were weaker than 2.90. No background was subtracted. For each scFv, signals with the empty controls are counted beside the result, with their mean in brackets.

changes,"log10 Kd, replicates",control signals
Y29P K50W S89C,2.82 / 2.81 / 2.94,5 of 9 (3.22)
N51F S92G G94S,4.00 / 3.60 / ND,1 of 9 (2.81)
E23N Y30S R90N,2.44 / 2.38 / 2.11,7 of 9 (3.91)
Y29N Y31G G94L,2.44 / 3.16 / 3.32,2 of 9 (3.89)
L27I S89Q R90S,ND / 4.21 / ND,3 of 9 (4.36)
R53E S55N,4.41 / 3.90 / ND,4 of 9 (3.56)
K50I N52Y Q96R,4.33 / 3.62 / 2.96,5 of 9 (3.68)
S88E R90P Q96A,2.93 / 2.35 / 2.41,2 of 9 (4.03)
A32F R90I F95K,3.48 / ND / 3.25,2 of 9 (3.66)
E23T D25E N51I,3.43 / 2.61 / 3.91,1 of 9 (2.87)
R28P N52P S88I,4.28 / 4.83 / 3.41,6 of 9 (3.73)
N51L S92D S93D,4.87 / ND / 4.50,4 of 9 (3.86)
G24V Y29Q A32L,4.61 / ND / ND,2 of 9 (2.91)
R28N Y30G A32K,1.50 / 2.17 / 1.29,0 of 9
Y30S P54H F95V,2.29 / 2.00 / 1.65,3 of 9 (3.73)
G49T S88P G94C,ND / 3.44 / ND,4 of 9 (4.31)
Y30R R90V V97H,2.31 / 2.27 / 2.03,2 of 9 (3.94)
L27A K50R S92Q,2.52 / 2.98 / 2.61,4 of 9 (3.71)
G49L P54H S93T,5.31 / 4.77 / ND,5 of 9 (3.98)
Y29F N33C G94N,4.63 / ND / 3.49,2 of 9 (4.43)
Y29A S92L G94P,3.88 / ND / ND,2 of 9 (4.31)
L27Y K50N R53K,3.45 / ND / ND,4 of 9 (4.64)
Y31H N52P R90F,5.36 / 4.55 / ND,2 of 9 (3.28)
A32K S88H F98R,1.81 / 2.36 / 1.67,0 of 9
D25R Y30V A32V,2.33 / 2.65 / 1.61,2 of 9 (4.23)
G24W S26F G94C,3.14 / ND / ND,2 of 9 (4.32)
N52M S55Y,2.50 / 2.24 / 2.09,5 of 9 (3.98)
G49C F98S,ND / ND / ND,4 of 9 (4.16)
R28Y R90I D91E,ND / ND / ND,1 of 9 (3.76)
N33I D91L G94T,3.35 / ND / ND,0 of 9
E23K F98W,1.89 / 1.84 / 1.24,6 of 9 (3.69)
G24A R28M R90D,2.79 / ND / ND,0 of 9
Y29G S89C V97E,ND / 3.76 / 3.68,4 of 9 (3.63)
G49R S55G Q96G,4.11 / 4.71 / ND,3 of 9 (3.83)
L27P S88R D91R,3.50 / 5.64 / ND,5 of 9 (4.15)
N33K G49V,ND / 4.62 / ND,6 of 9 (3.96)
S26W R28E Y31G,3.00 / 3.67 / 3.08,3 of 9 (3.83)
Y31H N52H D91L,5.43 / 4.15 / ND,2 of 9 (3.02)